Values of other authors, collected in patent publication US12253499B2, “Thin-layer chromatography system and method for assessing analyte concentrations in samples” (UCL BUSINESS LTD, priority 2017, dated 2025).

Details: in vivo

In the case of “cetuximab: cancer drug listed in Table D; not natively fluorescent, requires label”, the Window is listed as “at 250 mg/m^2 mg/m^2”.
